This is an account of results in patent US11174250B2, “Substituted carboxamides as inhibitors of WDR5 protein-protein binding” (PROPELLON THERAPEUTICS INC., priority 2016, dated 2021).

Broadly, the IC50 is the concentration needed to halve the response being measured. By Kd is commonly meant the free concentration of one partner at which half of the binding sites on the other are occupied at equilibrium, for simple one-to-one binding. The residence time is the mean lifetime of the complex, commonly the reciprocal of the off-rate.

Read-outs that look alike come from different tables or passages of the source.

One assay concerns the target MLL1-WRAD2 complex (Homo sapiens (Human), UniProt P61964). Nature of the assay: MLL1-WRAD2 enzyme assay (in vitro methyl transferase assay). It is filed as biochemical. As for the experimental part:
Reaction was initiated with 1 μM 3H-SAM and incubated for 1 hour at 30° C. Reaction mixture was transferred to P81 filter-paper and washed with PBS before detection.

A further assay has as its target WDR5 protein (Homo sapiens (Human), UniProt P61964). The experiment in a line: Surface Plasmon Resonance (SPR) assay. It is filed as binding. As to conditions: for residence time: read-out: Residence Time (t, min).
The mark [1] stands for this setting: read-out: WDR5 binding affinity (KD).
The mark [2] stands for this setting: read-out: WDR5 binding affinity SPR (KD).

In turn, `C[C@@H]1CN(Cc2ccc(F)c(-c3ccc(N4CCN(C)CC4)c(NC(=O)c4c[nH]c(=O)cc4C(F)(F)F)c3)c2)C[C@H](C)O1` [Example 1, N-(5′-(((2S,6R)-2,6-dimethylmorpholino)methyl)-2′-fluoro-4-(4-methylpiperazin-1-yl)-[1,1′-biphenyl]-3-yl)-6-oxo-4-(trifluoromethyl)-1,6-dihydropyridine-3-carboxamide] yielded an IC50 at MLL1-WRAD2 complex of 764 nM. Besides, the equilibrium dissociation constant (Kd) on WDR5 protein (SPR, Table 1, read-out: WDR5 binding affinity (KD)) is 17 nM; on WDR5 protein (SPR, Table 2, read-out: WDR5 binding affinity SPR (KD)) it was 17 nM. At WDR5 protein (SPR, τ=1/koff), the residence time came to 2.55 min.
With `CN1CCN(c2ccc(-c3cc(CN4CCOCC4)ccc3F)cc2NC(=O)c2ccc(=O)[nH]n2)CC1` [Example 9, N-(2′-fluoro-4-(4-methylpiperazin-1-yl)-5′-(morpholinomethyl)-[1,1′-biphenyl]-3-yl)-6-oxo-1,6-dihydropyridazine-3-carboxamide], the Kd at WDR5 protein (setting [1]) and at WDR5 protein (setting [2]) was 1600 nM in each case.
Consider `Cc1cc(C(=O)Nc2cc(-c3cc(CNC4CCCCC4)ccc3F)ccc2N2CCN(C)CC2)cc(C)c1F` [Example 18, N-(5′-((cyclohexylamino)methyl)-2′-fluoro-4-(4-methylpiperazin-1-yl)-[1,1′-biphenyl]-3-yl)-4-fluoro-3,5-dimethylbenzamide], for which the Kd on WDR5 protein (setting [1]) and at WDR5 protein (setting [2]) was 27 nM each time.
On to `CN1CCN(c2c(F)cc(-c3cc(CN4CCOCC4)ccc3F)cc2NC(=O)c2c[nH]c(=O)cc2C(F)(F)F)CC1` [Example 98, N-(2′,5-difluoro-4-(4-methylpiperazin-1-yl)-5′-(morpholinomethyl)-[1,1′-biphenyl]-3-yl)-6-oxo-4-(trifluoromethyl)-1,6-dihydropyridine-3-carboxamide], for which, at WDR5 protein, the residence time is 0.78 min.
